Experiment [1] concerns the target IDH1 R132H enzyme (Homo sapiens (Human), UniProt O75874, R132H). Description: Mutant IDH1 R132H biochemical assay. The settings on record: NADPH consumption, luminescent readout; 1.5 nM enzyme, 1 μM NADPH, 250 μM α-KG, 30 minutes, 32° C. The protocol: Mutant IDH1 R132H Biochemical Assay […] NADPH consumption was measured by luminescent readout. […] The IDH1 R132H enzyme was used in a final concentration of 1.5 nM. […] The final DMSO concentration was 2.4%. […] Luminescence was measured on a luminescent reader (10 seconds measuring time, 1 second integration period, 30% sensitivity). The decrease in luminescence is proportional to mIDH1 activity. IC50 values are determined by interpolation from plots of relative luminescence versus inhibitor concentration.

Sequences of proteins named here, by UniProt entry; tags and fusion partners are left off.
UniProt O75874, whole entry R132H: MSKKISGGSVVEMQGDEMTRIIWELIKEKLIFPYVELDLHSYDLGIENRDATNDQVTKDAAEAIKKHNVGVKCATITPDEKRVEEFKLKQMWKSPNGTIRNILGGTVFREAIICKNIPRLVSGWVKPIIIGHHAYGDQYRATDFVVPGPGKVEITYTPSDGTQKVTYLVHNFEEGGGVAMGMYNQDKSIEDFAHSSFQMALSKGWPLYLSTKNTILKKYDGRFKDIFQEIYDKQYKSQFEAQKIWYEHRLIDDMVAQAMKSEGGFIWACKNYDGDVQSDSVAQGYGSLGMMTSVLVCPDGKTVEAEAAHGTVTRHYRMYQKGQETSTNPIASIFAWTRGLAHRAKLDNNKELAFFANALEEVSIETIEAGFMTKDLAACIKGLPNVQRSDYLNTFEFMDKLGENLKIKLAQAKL

The target of experiment [2] is mutated isocitrate dehydrogenase (mIDH) protein, LN229 R132H cells (Homo sapiens (Human), UniProt O75874, R132H). Description: Mutant IDH1 cellular assay (2-HG in medium of LN229 R132H cells). It counts as cell-based. The settings on record: 2-HG levels in medium, 24 hours. The protocol: Mutant IDH1 Cellular Assay
Levels of (2R)-2-hydroxyglutarate (2HG) were measured in medium of a cell line with overexpression of mutated isocitrate dehydrogenase (mIDH) protein. mIDH catalyzes the NADPH-dependent reduction of alpha-ketoglutarate to 2-HG. Cells (LN229 R132H, Mohrenz et al., Apoptosis (2013) 18:1416-1425) were grown in DMEM containing 10% FCS. They were harvested by trypsin and seeded into 96-well plates. Cells were incubated overnight at 37° C. in 5% CO2. The next day test compounds were added to each cell well. The final concentration of DMSO was 0.1% and DMSO controls were included. The plates were then placed in an incubator for 24 hours.
2-HG was measured according to Balss et al. (Acta Neuropathol (2012) 124: 883-891). Briefly, HClO4 was added to each well and the plates were centrifuged. Aliquots are removed and incubated with hydroxyglutarate dehydrogenase (HGDH), diaphorase, NAD+, and resazurin. The conversion of resazurin to resorufin was detected by fluorescence spectroscopy at Ex 540 nm Em 600 nm. The increase in fluorescence is proportional to 2-HG production. IC50 values are determined by interpolation from plots of relative fluorescence vs inhibitor concentration.

SMILES strings stand for the structures.

For `COC(=O)c1ccc2c(c1)nc(Cc1ccccc1)n2[C@H]1C[C@@H](C)CC(C)(C)C1` (racemic) [Example 2-12, (±) methyl 2-benzyl-1-[(cis)-3,3,5-trimethylcyclohexyl]-1H-benzimidazole-5-carboxylate], the IC50 in experiment [1] stood at 3500 nM. Consider `CC(c1ccc(OC(F)(F)F)cc1)c1nc2cc(C(=O)O)ccc2n1[C@H]1C[C@@H](C)CC(C)(C)C1` (single isomer, unassigned) [Example 2-30-4, 2-{1-[4-(trifluoromethoxy)phenyl]ethyl}-1-[(cis)-3,3,5-trimethylcyclohexyl]-1H-benzimidazole-5-carboxylic acid], for which the half-inhibitory concentration (IC50) in experiment [1] is more than 10000 nM. Consider `C[C@@H]1C[C@H](n2c(Cc3ccc(OC(F)(F)F)cc3)nc3cc(C(=O)O)ccc32)CC(C)(C)C1` (racemic) [Example 2-29, (±) 2-[4-(trifluoromethoxy)benzyl]-1-[(cis)-3,3,5-trimethylcyclohexyl]-1H-benzimidazole-5-carboxylic Acid], for which it took 950 nM to reach half-maximal inhibition in experiment [2] (IC50).

For the molecule `C[C@@H]1C[C@H](n2c(Cc3ccc(OC(F)(F)F)cc3)nc3cc(C#N)ccc32)CC(C)(C)C1` (racemic) [Example 2-23, (±) 2-[4-(trifluoromethoxy)benzyl]-1-[(cis)-3,3,5-trimethylcyclohexyl]-1H-benzimidazole-5-carbonitrile], the 50% inhibitory concentration (IC50) in experiment [1] amounted to 750 nM.

As for `COC(=O)c1cc2nc(Cc3ccc(OC(F)(F)F)cc3)n([C@H]3C[C@@H](C)CC(C)(C)C3)c2cc1OCC(F)(F)F` (racemic) [Example 2-21, (±) methyl 6-(2,2,2-trifluoroethoxy)-2-[4-(trifluoromethoxy)benzyl]-1-[(cis)-3,3,5-trimethylcyclohexyl]-1H-benzimidazole-5-carboxylate], in experiment [1], the IC50 was more than 10000 nM. Still for that read-out and setting: the same measure for `CC(c1ccc(OC(F)(F)F)cc1)c1nc2cc(C(=O)O)ccc2n1[C@H]1C[C@@H](C)CC(C)(C)C1` (single isomer, unassigned) [Example 2-30-3, 2-{1-[4-(trifluoromethoxy)phenyl]ethyl}-1-[(cis)-3,3,5-trimethylcyclohexyl]-1H-benzimidazole-5-carboxylic acid]: 2000 nM; for `C[C@@H]1C[C@H](n2c(-c3ccc(OC(F)(F)F)cc3)nc3cc(C(=O)O)ccc32)CC(C)(C)C1` (single isomer, unassigned) [Example 2-2-1, 2-[4-(trifluoromethoxy)phenyl]-1-[(cis)-3,3,5-trimethylcyclohexyl]-1H-benzimidazole-5-carboxylic Acid]: 130 nM. For `C[C@@H]1C[C@H](n2c(Cc3ccc(OC(F)(F)F)cc3)nc3cc(C(=O)O)ccc32)CC(C)(C)C1` (single isomer, unassigned) [Example 2-29-2, 2-[4-(trifluoromethoxy)benzyl]-1-[(cis)-3,3,5-trimethylcyclohexyl]-1H-benzimidazole-5-carboxylic Acid], the IC50 in experiment [1] was 50 nM; in experiment [2], 600 nM. On to `COC(=O)c1cc2nc(Cc3ccc(OC(F)(F)F)cc3)n([C@H]3C[C@@H](C)CC(C)(C)C3)c2cc1OC` (racemic) [Example 2-19, (±) methyl 6-methoxy-2-[4-(trifluoromethoxy)benzyl]-1-[(cis)-3,3,5-trimethylcyclohexyl]-1H-benzimidazole-5-carboxylate], for which the IC50 amounted to 160 nM in experiment [1] and 2300 nM in experiment [2]. `COC(=O)c1ccc2c(c1)nc(Cc1sc(-c3ccccc3)nc1C)n2[C@H]1C[C@@H](C)CC(C)(C)C1` (racemic) [Example 2-15, (±) methyl 2-[(4-methyl-2-phenyl-1,3-thiazol-5-yl)methyl]-1-[(cis)-3,3,5-trimethylcyclohexyl]-1H-benzimidazole-5-carboxylate]: the IC50 in experiment [1] worked out at 8000 nM. On to `COC(=O)CCc1cc2nc(Cc3ccc(OC(F)(F)F)cc3)n([C@H]3C[C@@H](C)CC(C)(C)C3)c2cc1OC` (single isomer, unassigned) [Example 2-28-2, methyl 3-{6-methoxy-2-[4-(trifluoromethoxy)benzyl]-1-[(cis)-3,3,5-trimethylcyclohexyl]-1H-benzimidazol-5-yl}propanoate], for which the IC50 was 100 nM in experiment [1] and 120 nM in experiment [2]. In turn, `COC(=O)CCc1cc2nc(Cc3ccc(OC(F)(F)F)cc3)n([C@H]3C[C@@H](C)CC(C)(C)C3)c2cc1OC` (single isomer, unassigned) [Example 2-28-1, methyl 3-{6-methoxy-2-[4-(trifluoromethoxy)benzyl]-1-[(cis)-3,3,5-trimethylcyclohexyl]-1H-benzimidazol-5-yl}propanoate] showed an IC50 in experiment [1] of 1200 nM.

Turning to `COC(=O)CCc1cc2nc(Cc3ccc(OC(F)(F)F)cc3)n([C@H]3C[C@@H](C)CC(C)(C)C3)c2cc1C` (racemic) [Example 2-27, (±) methyl 3-{6-methyl-2-[4-(trifluoromethoxy)benzyl]-1-[(cis)-3,3,5-trimethylcyclohexyl]-1H-benzimidazol-5-yl}propanoate], the IC50 in experiment [1] is 180 nM; in experiment [2], 500 nM. For `CC(c1ccc(OC(F)(F)F)cc1)c1nc2cc(C(=O)O)ccc2n1[C@H]1C[C@@H](C)CC(C)(C)C1` (single isomer, unassigned) [Example 2-30-2, 2-{1-[4-(trifluoromethoxy)phenyl]ethyl}-1-[(cis)-3,3,5-trimethylcyclohexyl]-1H-benzimidazole-5-carboxylic acid], the IC50 in experiment [1] worked out at 950 nM. The same measure, in the same setting: the same measure for `COC(=O)c1cc2nc(Cc3ccc(OC(F)(F)F)cc3)n([C@H]3C[C@@H](C)CC(C)(C)C3)c2cc1OCC(F)(F)F` (single isomer, unassigned) [Example 2-21-2, methyl 6-(2,2,2-trifluoroethoxy)-2-[4-(trifluoromethoxy)benzyl]-1-[(cis)-3,3,5-trimethylcyclohexyl]-1H-benzimidazole-5-carboxylate]: 12000 nM; for `CC(c1ccc(OC(F)(F)F)cc1)c1nc2cc(C(=O)O)ccc2n1[C@@H]1C[C@H](C)CC(C)(C)C1` (stereo in doubt) [Example 2-30]: 2700 nM.

Turning to `COC(=O)c1cc2nc(Cc3ccc(OC(F)(F)F)cc3)n([C@H]3C[C@@H](C)CC(C)(C)C3)c2cc1OC` (single isomer, unassigned) [Example 2-19-2, methyl 6-methoxy-2-[4-(trifluoromethoxy)benzyl]-1-[(cis)-3,3,5-trimethylcyclohexyl]-1H-benzimidazole-5-carboxylate], the results for the IC50 in experiment [1] and in experiment [2] were 70 nM and 1200 nM, respectively.

Turning to `COC(=O)c1ccc2c(c1)nc(Cc1c(C)[nH]c3ccc(F)cc13)n2[C@H]1C[C@@H](C)CC(C)(C)C1` (racemic) [Example 2-16, (±) methyl 2-[(5-fluoro-2-methyl-1H-indol-3-yl)methyl]-1-[(cis)-3,3,5-trimethylcyclohexyl]-1H-benzimidazole-5-carboxylate], in experiment [1], half-maximal inhibition (IC50) required 5800 nM. `COC(=O)c1cc2nc(Cc3ccc(OC(F)(F)F)cc3)n([C@H]3C[C@@H](C)CC(C)(C)C3)c2cc1OC` (single isomer, unassigned) [Example 2-19-1, methyl 6-methoxy-2-[4-(trifluoromethoxy)benzyl]-1-[(cis)-3,3,5-trimethylcyclohexyl]-1H-benzimidazole-5-carboxylate] showed an IC50 in experiment [1] of 1000 nM. Still for that read-out and setting: the same measure for `C[C@@H]1C[C@H](n2c(-c3ccc(OC(F)(F)F)cc3)nc3cc(C(=O)O)ccc32)CC(C)(C)C1` (racemic) [Example 2-2, (±) 2-[4-(trifluoromethoxy)phenyl]-1-[(cis)-3,3,5-trimethylcyclohexyl]-1H-benzimidazole-5-carboxylic Acid]: 190 nM; for `COC(=O)c1ccc2c(c1)nc(Cc1cn(C)c3ccccc13)n2[C@H]1C[C@@H](C)CC(C)(C)C1` (racemic) [Example 2-17, (±) methyl 2-[(1-methyl-1H-indol-3-yl)methyl]-1-[(cis)-3,3,5-trimethylcyclohexyl]-1H-benzimidazole-5-carboxylate]: 9000 nM. Regarding `CC(c1ccc(OC(F)(F)F)cc1)c1nc2cc(C(=O)O)ccc2n1[C@H]1C[C@@H](C)CC(C)(C)C1` (single isomer, unassigned) [Example 2-30-1, 2-{1-[4-(trifluoromethoxy)phenyl]ethyl}-1-[(cis)-3,3,5-trimethylcyclohexyl]-1H-benzimidazole-5-carboxylic acid], the IC50 in experiment [1] came to 5000 nM. The same measure, in the same setting: the same measure for `COC(=O)c1cc2nc(Cc3ccc(OC(F)(F)F)cc3)n([C@H]3C[C@@H](C)CC(C)(C)C3)c2cc1OCC(F)(F)F` (single isomer, unassigned) [Example 2-21-1, methyl 6-(2,2,2-trifluoroethoxy)-2-[4-(trifluoromethoxy)benzyl]-1-[(cis)-3,3,5-trimethylcyclohexyl]-1H-benzimidazole-5-carboxylate]: 5000 nM.

The values above are taken from patent publication US10179123B2, “2-aryl- and 2-arylalkyl-benzimidazoles as mIDH1 inhibitors” (BAYER PHARMA AKTIENGESELLSCHAFT, priority 2015, dated 2019).
